Assay results: PubChem BioAssay AID1214 (Sanford-Burnham Center for Chemical Genomics, 2008)
Some of the results follow. Active and inactive are the calls of the source.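 Rule for the calls: active = activation factor of 2 or more at 20 µM, relative to plate controls; inactive = the rest.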

By UniProt entry, the sequences of proteins in these tests, tags left out. Where a name states a change or a piece, a line headed by the entry shows the natural chain unless it says otherwise.
UniProt P34949: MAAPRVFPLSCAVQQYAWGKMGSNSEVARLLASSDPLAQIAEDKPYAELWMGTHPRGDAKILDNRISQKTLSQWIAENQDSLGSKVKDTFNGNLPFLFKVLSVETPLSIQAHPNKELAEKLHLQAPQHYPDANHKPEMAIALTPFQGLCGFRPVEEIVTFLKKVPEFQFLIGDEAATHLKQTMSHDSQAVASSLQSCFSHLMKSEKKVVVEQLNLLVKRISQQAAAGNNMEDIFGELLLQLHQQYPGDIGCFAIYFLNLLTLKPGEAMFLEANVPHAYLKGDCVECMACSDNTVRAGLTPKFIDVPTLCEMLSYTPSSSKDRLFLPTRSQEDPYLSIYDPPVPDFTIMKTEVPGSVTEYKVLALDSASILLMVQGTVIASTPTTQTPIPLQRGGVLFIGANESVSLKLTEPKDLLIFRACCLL

Target: Mannose-6-phosphate isomerase (Homo sapiens) (UniProt P34949)
Test: MPI enzyme activity enhancement – biochemical, fluorescence intensity, near-Km mannose 6-phosphate, primary screen (AID 1214)
Conditions: purified human PMI, coupled resazurin fluorescence, 20 min; at 20 µM; stronger effect = higher value; 1 = vehicle control, 0 substrate-free wells

SMILES | activation factor
O=[N+]([O-])c1ncn(CCn2ncnc2[N+](=O)[O-])n1 | inactive: 1.1
CC(C)=N/N=C(\N)N[N+](=O)[O-] | inactive: 1.1
COc1ccc(C2=NCC(CBr)S2)cc1 (configuration not stated) | inactive: 0.9
O=[N+]([O-])c1cccc2n[nH]nc12 | inactive: 1.1
CCc1nc2c(n1)c1c(non1O)c1c2no[n+]1[O-] | inactive: 0.4
O=[N+]([O-])c1cc([N+](=O)[O-])c(CCNc2ccccc2)c([N+](=O)[O-])c1 | inactive: 1.2
CC(C)CC(=O)NC(Sc1ccc(Cl)cc1)C(Cl)(Cl)Cl (configuration not stated) | inactive: 1.1
Cc1c2non([O-])c-2c(C)[n+](=O)[n+]1[O-] | inactive: 0.6
NC(=O)c1cc([N+](=O)[O-])cc([N+](=O)[O-])c1N | inactive: 1.1
Clc1ccc(Cl)c(NC2=NCC(CBr)S2)c1 (configuration not stated) | inactive: 1.3
CN1CCCC(OC(=O)C(c2ccccc2)c2ccccc2)C1 (configuration not stated) | inactive: 1.1
CCN(N=Nc1nonc1N)c1nonc1N | inactive: 0.8
Cc1cc(SC(NC(=O)c2ccc(F)cc2)C(Cl)(Cl)Cl)ncn1 (configuration not stated) | inactive: 1.1
CC(=O)NC(SC(=S)N(CC(C)C)CC(C)C)C(Cl)(Cl)Cl (configuration not stated) | inactive: 1.1
Cc1ccc(OP(=O)(Nc2ccccn2)Oc2ccc(C)cc2)cc1 | inactive: 0.9
CCC(=O)N1C2C3N(C(=O)CC)C1C1N(C(=O)CC)C(C(N1C(=O)CC)N3C(=O)CC)N2C(=O)CC | inactive: 1.1
O=C(NC1CCS(=O)(=O)C1)NP(=S)(Oc1ccccc1)Oc1ccccc1 (configuration not stated) | inactive: 0.8
c1ccc(-c2nn[nH]n2)c(-c2nn[nH]n2)c1 | inactive: 1.2
CC(=O)Nc1ccc(Oc2c([N+](=O)[O-])cc([N+](=O)[O-])cc2[N+](=O)[O-])cc1 | inactive: 1.2
O=P1(Nc2nc3ccc(Cl)cc3s2)COc2ccccc2O1 (configuration not stated) | inactive: 0.8
c1nnnn1CCn1cnnn1 | inactive: 0.9

SMILES | activation factor
C(Cc1nn[nH]n1)Cc1nn[nH]n1 | inactive: 0.7
O=C(OC1CN2CCC1CC2)c1cccc(Cl)c1 (configuration not stated) | inactive: 0.9
O=P1(Nc2ncccn2)COc2ccccc2OC1 | inactive: 1.1
Cc1ccc(OCC(=O)OC2CN3CCC2CC3)cc1 (configuration not stated) | inactive: 0.9
Cc1nn(-c2ccccc2)c2c1P(=O)(N1CCOCC1)N(C)C(c1ccccc1)=N2 (configuration not stated) | inactive: 0.9
CC1CCC(C(C)C)C(OP(=O)(Nc2ccccn2)c2ccccc2)C1 (configuration not stated) | inactive: 1.1
CN(C)C1(CNC(=O)c2ccc(S(C)(=O)=O)cc2)CCCCC1 | inactive: 0.9
CC(C)/C=N\N=C(\N)N[N+](=O)[O-] | inactive: 1.2
O=P1(Nc2ccccn2)COc2ccccc2OC1 | inactive: 0.9
Clc1n[nH]nc1-c1nn[nH][15n]1 | inactive: 0.9
CCOP(=O)(Nc1cccc2ccccc12)OCC | inactive: 0.9
CCOP1(=S)c2c(C)nn(CCC#N)c2N=C(c2ccccc2F)N1C (configuration not stated) | inactive: 0.9
O=P(Nc1nccs1)(c1ccccc1)c1nc2ccccc2s1 (configuration not stated) | inactive: -0.1
ClCCSc1nnc(-c2cccnc2)o1 | inactive: 0.9
CC(C)NC(=O)NP(=O)(Oc1ccccc1)Oc1ccccc1 | inactive: 0.9
O=[N+]([O-])c1cc([N+](=O)[O-])c(-c2ccn[nH]2)s1 | inactive: 0.9
O=C(OC1CN2CCC1CC2)C12CC3CC(CC(C3)C1)C2 (configuration not stated) | inactive: 1.1
Cc1c2c(nc3ccccc13)SC(C(Cl)Cl)C2 (configuration not stated) | inactive: 0.9
CCC(C)N(CC(C)C)C(=S)SC(NC(C)=O)C(Cl)(Cl)Cl (configuration not stated) | inactive: 1.2
O=P(Nc1ccccn1)(c1cccc2ccccc12)c1cccc2ccccc12 | inactive: 0.9
Cc1cc(SC(NC=O)C(Cl)(Cl)Cl)ncn1 (configuration not stated) | inactive: 1.2
